Results from patent US20250025411A1, “READILY SOLUBLE AND THERMOSTABLE GLUCAGON FORMULATIONS AND DELIVERY FOR MINI-DOSING AND CLOSED -LOOP PROPHYLACTIC TREATMENT OF HYPOGLYCEMIA” (Massachusetts Institute of Technology, priority 2023, published 2025).

Assay: High throughput screening of water-soluble solid excipients for glucagon dissolution
Assay type: physicochemical
Settings: for Fold change vs. PBS Avg.: 30-minute incubation in pH 7.4 PBS containing 1 mg/mL excipient

| Structure (SMILES) | enhancement of glucagon dissolution (statistical significance compared to no excipient) (30-minute incubation in pH 7.4 PBS at 37° C.) | Fold change vs. PBS Avg. (37° C.) | Glucagon concentration Avg. (solubilized glucagon after 30-minute incubation of lyophilized glucagon in pH 7.4 PBS containing 1 mg/mL excipient, 37° C.) |
| --- | --- | --- | --- |
| CNC[C@H](O)[C@@H](O)[C@H](O)[C@H](O)CO [Meglumine] | successfully enhanced the dissolution of glucagon | 6.13 fold |  |
| OC[C@H]1O[C@@H]2O[C@H]3[C@H](O)[C@@H](O)[C@@H](O[C@H]4[C@H](O)[C@@H](O)[C@@H](O[C@H]5[C@H](O)[C@@H](O)[C@@H](O[C@H]6[C@H](O)[C@@H](O)[C@@H](O[C@H]7[C@H](O)[C@@H](O)[C@@H](O[C@H]8[C@H](O)[C@@H](O)[C@@H](O[C@H]9[C@H](O)[C@@H](O)[C@@H](O[C@H]1[C@H](O)[C@H]2O)O[C@@H]9CO)O[C@@H]8CO)O[C@@H]7CO)O[C@@H]6CO)O[C@@H]5CO)O[C@@H]4CO)O[C@@H]3CO [y-Cyclodextrin] |  | 1.30 fold | 0.28 mg/mL |
